Publication PMC2692895 (Journal of medicinal chemistry, 2008)

System: XIAP knockout (−/−) mouse embryonic fibroblasts (MEF) cells
Conditions: 24 hours; at much higher concentrations

## CN[C@@H](C)C(=O)Nc1ccc(Oc2ccc(OC)cc2)c(C(=O)NCc2csc(-c3cccs3)n2)c1 [Compound 3, (S)-2-(4-methoxyphenoxy)-5-(2-(methylamino)propanamido)-N-((2-(thiophen-2-yl)thiazol-4-yl)methyl)benzamide]
  killing of XIAP knockout (−/−) MEF cells: still killed XIAP knockout (−/−) MEF cells
